From paper PMC5643385, “Probing ligand recognition of the opioid pan antagonist AT-076 at nociceptin, kappa, mu, and delta opioid receptors through structure-activity relationships” (Scientific Reports, 2017)
Like-named read-outs stand apart in the source and are kept apart here.

By UniProt entry, the sequences of proteins in these tests, tags left out. Where a name states a change or a piece, a line headed by the entry shows the natural chain unless it says otherwise.
UniProt P41146: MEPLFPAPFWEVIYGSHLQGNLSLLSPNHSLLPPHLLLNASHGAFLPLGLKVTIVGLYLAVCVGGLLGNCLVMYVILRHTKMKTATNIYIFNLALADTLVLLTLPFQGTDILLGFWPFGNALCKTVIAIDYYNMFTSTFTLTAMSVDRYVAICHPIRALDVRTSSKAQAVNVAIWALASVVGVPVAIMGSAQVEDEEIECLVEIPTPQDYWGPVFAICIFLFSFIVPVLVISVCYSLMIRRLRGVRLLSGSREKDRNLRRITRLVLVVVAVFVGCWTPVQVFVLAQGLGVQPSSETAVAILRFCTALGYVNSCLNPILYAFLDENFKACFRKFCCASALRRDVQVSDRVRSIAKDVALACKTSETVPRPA
UniProt P35372, whole entry: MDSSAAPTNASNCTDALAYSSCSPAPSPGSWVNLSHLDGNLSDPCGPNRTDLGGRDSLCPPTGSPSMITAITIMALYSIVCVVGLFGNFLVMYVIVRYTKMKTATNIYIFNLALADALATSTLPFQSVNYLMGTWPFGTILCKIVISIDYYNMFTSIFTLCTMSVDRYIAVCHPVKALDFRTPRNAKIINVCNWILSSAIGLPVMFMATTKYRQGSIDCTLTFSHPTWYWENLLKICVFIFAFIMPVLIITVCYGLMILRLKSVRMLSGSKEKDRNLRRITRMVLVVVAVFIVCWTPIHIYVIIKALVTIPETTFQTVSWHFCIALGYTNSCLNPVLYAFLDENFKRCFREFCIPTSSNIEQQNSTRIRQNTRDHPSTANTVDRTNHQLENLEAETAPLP
UniProt P41143, whole entry: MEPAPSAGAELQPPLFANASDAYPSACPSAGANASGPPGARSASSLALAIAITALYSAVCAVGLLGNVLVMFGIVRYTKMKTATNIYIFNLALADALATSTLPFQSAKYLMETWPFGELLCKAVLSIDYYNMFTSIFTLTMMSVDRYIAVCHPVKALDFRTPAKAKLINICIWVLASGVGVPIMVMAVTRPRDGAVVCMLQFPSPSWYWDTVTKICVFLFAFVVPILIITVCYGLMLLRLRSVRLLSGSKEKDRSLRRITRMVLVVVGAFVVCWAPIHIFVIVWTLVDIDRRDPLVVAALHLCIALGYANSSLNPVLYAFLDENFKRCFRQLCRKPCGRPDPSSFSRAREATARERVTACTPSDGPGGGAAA

Experiments:
[1] = target: T1, human NOP receptor (Homo sapiens, UniProt P41146); assay: Radioligand competition binding, [3H]N/OFQ, membranes of transfected CHO cells
[2] = target: T1, human NOP receptor; assay: [35S]GTPγS functional assay (intrinsic activity; Schild analysis vs N/OFQ); type: biochemical; settings: inhibition of agonist-induced [35S]GTPγS binding
[3] = target: T1, human NOP receptor; design: method as in PMID 25635572; settings: Figure 1; cited from earlier work
[4] = target: T2, human MOP receptor (Homo sapiens, UniProt P35372); assay: Radioligand competition binding, [3H]DAMGO, membranes of transfected CHO cells
[5] = target: T3, human DOP receptor (Homo sapiens, UniProt P41143); assay: Radioligand competition binding, [3H]DPDPE, membranes of transfected CHO cells
[6] = target: T2, human MOP receptor; settings: read-out: MOP Ki; Figure 1; cited from earlier work
[7] = target: T3, human DOP receptor; settings: read-out: DOP Ki; Figure 1; cited from earlier work

SMILES: CC(C)[C@@H](CN1CCC(c2cccc(O)c2)CC1)NC(=O)[C@H]1Cc2ccc(O)cc2CN1 [1 (AT-076), (R)-7-hydroxy-N-((S)-1-(4-(3-hydroxyphenyl)piperidin-1-yl)-3-methylbutan-2-yl)-1,2,3,4-tetrahydroisoquinoline-3-carboxamide]
- Ki [1]: 1.75 ± 0.74 nM
- Antagonist Potency (pA2 ± SEM) NOP [2]: 7.52
- Ki [3]: 1.75 ± 0.74 nM

SMILES: CC(C)[C@@H](CN1CC[C@@](C)(c2cccc(O)c2)[C@@H](C)C1)NC(=O)[C@H]1Cc2ccc(O)cc2CN1 [JDTic, reference compound]
- Ki [4]: 1.53 ± 0.19 nM
- Ki [5]: 10.6 ± 0.17 nM
- Ki [6]: 1.53 ± 0.19 nM
- Ki [7]: 10.6 ± 0.17 nM
